US20250235453A1, “TRIAZOLOPYRIDAZINE COMPOUNDS USEFUL AS RAC1 INHIBITORS” (Revere Pharmaceuticals, priority 2021, published 2025)

Biological target: Rac1 (Homo sapiens, UniProt P63000)
Assay: Rac Activation AlphaScreen Assay (Rac1 AS)
Conditions: dose leading to 50% disruption of complex

Structure (SMILES) | pIC50
O=C(Nc1cccc(-c2ccc3nnc(-c4cccnc4)n3n2)c1)c1ccc2ccccc2n1 | 4.30 to 5.00
O=Cc1ccc(-c2nnc3ccc(-c4cccc(NC(=O)c5ccc(F)cc5)c4)nn23)o1 | > 5.00
Cc1cc(C)cc(C(=O)Nc2cccc(-c3ccc4nnc(-c5cccnc5)n4n3)c2)c1 | > 5.00
COc1cccc(C(=O)Nc2cccc(-c3ccc4nnc(-c5cccnc5)n4n3)c2)c1 | > 5.00
CCOc1ncccc1C(=O)Nc1cccc(-c2ccc3nnc(-c4cccnc4)n3n2)c1 | > 5.00
O=C(Nc1cccc(-c2ccc3nnc(-c4cccnc4)n3n2)c1)c1cccc(Cl)c1 | > 5.00
CCOc1cc(C(=O)Nc2cccc(-c3ccc4nnc(-c5cccnc5)n4n3)c2)c(OCC)cn1 | > 5.00
Cn1cncc1C(=O)Nc1cccc(-c2ccc3nnc(-c4cccnc4)n3n2)c1 | > 5.00
O=C(Nc1cccc(-c2ccc3nnc(-c4cccnc4)n3n2)c1)c1cncs1 | > 5.00
CCOc1cc(C(=O)Nc2cccc(-c3ccc4nnc(-c5cccnc5)n4n3)c2)ccn1 | > 5.00
COc1cccc(C(=O)Nc2ccc(-c3ccc4nnc(C)n4n3)cc2)c1OC | < 4.00
COc1ccc(C(=O)Nc2cccc(-c3ccc4nnc(-c5cccnc5)n4n3)c2)cc1 | > 5.00
CCOc1ccc(C(=O)Nc2cccc(-c3ccc4nnc(-c5cccnc5)n4n3)c2)cc1 | 4.30 to 5.00
O=C(Nc1cccc(-c2ccc3nnc(-c4ccncc4)n3n2)c1)c1cccc(F)c1 | > 5.00
O=C(Nc1cccc(-c2ccc3nnc(-c4cccnc4)n3n2)c1)c1cccc2ccccc12 | > 5.00
O=C(Nc1cccc(-c2ccc3nnc(-c4cccnc4)n3n2)c1)c1cccnc1 | > 5.00

The next lines start with the values.

pIC50 | Structure (SMILES)
> 5.00 | O=C(Nc1cccc(-c2ccc3nnc(-c4cccnc4)n3n2)c1)c1cccc(F)c1
> 5.00 | O=C(Nc1cccc(-c2ccc3nnc(-c4ccc(CO)o4)n3n2)c1)c1ccc(F)cc1
> 5.00 | O=C(Nc1cccc(-c2ccc3nnc(-c4cccnc4)n3n2)c1)c1ccc(F)cc1
> 5.00 | COc1ccccc1C(=O)Nc1cccc(-c2ccc3nnc(-c4cccnc4)n3n2)c1
> 5.00 | O=C(CCCc1ccccc1)Nc1cccc(-c2ccc3nnc(-c4cccnc4)n3n2)c1
> 5.00 | CCOc1ncccc1C(=O)Nc1cccc(-c2ccc3nnc(C)n3n2)c1
> 5.00 | O=C(Nc1cccc(-c2ccc3nnc(-c4ccccn4)n3n2)c1)c1cccc(F)c1
> 5.00 | Cc1cccc(C(=O)Nc2cccc(-c3ccc4nnc(-c5cccnc5)n4n3)c2)c1
> 5.00 | Cc1ccc(S(=O)(=O)Nc2ccc(-c3ccc4nnc(-c5ccccn5)n4n3)cc2)cc1
> 5.00 | Cc1ccccc1C(=O)Nc1ccc(-c2ccc3nnc(-c4ccccn4)n3n2)cc1
> 5.00 | O=C(Nc1cccc(-c2ccc3nnc(-c4cccnc4)n3n2)c1)c1ccccc1Br
> 5.00 | O=C(Nc1cccc(-c2ccc3nnc(-c4cccnc4)n3n2)c1)c1cnco1
> 5.00 | COc1cc(C(=O)Nc2cccc(-c3ccc4nnc(-c5cccnc5)n4n3)c2)ccc1F
> 5.00 | Cc1cccc(S(=O)(=O)Nc2ccc(-c3ccc4nnc(-c5ccccn5)n4n3)cc2)c1
> 5.00 | CCCCOc1ccc(S(=O)(=O)Nc2cccc(-c3ccc4nnc(-c5cccnc5)n4n3)c2)cc1
> 5.00 | O=C(Nc1cccc(-c2ccc3nnc(-c4cccnc4)n3n2)c1)c1ccccn1

pIC50: −log10 of the molar value.
